Measured values from ChEMBL document CHEMBL1136571, “Design, synthesis and structure-activity relationships of benzoxazinone-based factor Xa inhibitors” (Bioorg Med Chem Lett, 2003).

By UniProt entry, the sequences of proteins in these tests, tags left out. Residues count along the entry.
UniProt P00742, 41-179 limits assumed: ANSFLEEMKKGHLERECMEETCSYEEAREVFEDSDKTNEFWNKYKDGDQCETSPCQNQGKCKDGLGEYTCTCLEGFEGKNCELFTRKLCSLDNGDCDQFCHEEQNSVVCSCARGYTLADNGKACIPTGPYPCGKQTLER
UniProt P00742, 235-488 limits assumed: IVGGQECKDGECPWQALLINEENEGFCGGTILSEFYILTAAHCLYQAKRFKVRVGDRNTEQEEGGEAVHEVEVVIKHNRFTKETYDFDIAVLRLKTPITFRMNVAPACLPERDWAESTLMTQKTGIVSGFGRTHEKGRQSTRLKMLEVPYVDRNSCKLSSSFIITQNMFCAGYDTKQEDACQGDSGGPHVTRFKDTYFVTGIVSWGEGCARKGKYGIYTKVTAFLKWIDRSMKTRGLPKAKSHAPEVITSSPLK

Molecular target: Coagulation factor X (Homo sapiens, UniProt P00742)
Assay: Inhibitory concentration to factor Xa

| IC50 [nM] | Compound |
| --- | --- |
| 4 | CC(=N)N1CCC(Oc2ccc3c(c2)OCC(=O)N3Cc2cccc(-c3cccc(C(=N)N)c3)c2)CC1 |
| 1050 | CS(=O)(=O)N(Cc1ccc2ccc(C(=N)N)cc2c1)c1ccc(C(=O)N2CCCC2)cc1 |
